Yeast mating assay 1: variants of the scFv Ab-14

The measurements come from Engelhart et al. 2022 (doi:10.1038/s41597-022-01779-4) through the FLAb antibody collection.

Binding partner: SARS-CoV-2 spike HR2 peptide, sequence PDVDLGDISGINAS.

Parent scFv Ab-14: VH joined to VL by a 15-residue (Gly4Ser)3 linker. Changes lie in the light chain CDRs alone.
VH: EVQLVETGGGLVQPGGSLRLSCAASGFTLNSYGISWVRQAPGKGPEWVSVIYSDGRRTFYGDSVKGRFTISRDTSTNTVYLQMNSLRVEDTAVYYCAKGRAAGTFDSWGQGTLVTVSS
VL: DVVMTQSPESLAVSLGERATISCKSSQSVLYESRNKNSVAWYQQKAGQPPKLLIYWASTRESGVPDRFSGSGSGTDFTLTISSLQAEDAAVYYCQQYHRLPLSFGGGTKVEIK

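Phage display of a naive human antibody library on the peptide gave the parent. AAYL50 was designed without a model: most single CDR substitutions and a random sample of double and triple ones. The assay is AlphaSeq: two haploid yeast populations carry antibody and antigen on their surface. Binding brings cells together so that they mate, and sequencing counts the barcode pairs among the diploids. Read counts were normalised to the haploid input and turned into Kd by a linear fit to BCL2-family pairs of known affinity, for each replicate. There are three technical replicates.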

Changes read parent residue, position, new residue, counted from the first residue of the VL shown.
Values are apparent Kd, the geometric mean of the replicates that gave a signal; lower means stronger binding.
Where no diploid with the target was found in any replicate, the entry reads "nd": below detection, most likely a poor binder, though not proof of it.
Empty control strains, which show no peptide, gave a signal in 18% of pairings with library AAYL50; the median was 15 µM and 95% of these signals were weaker than 970 nM. No background was subtracted.

V29R/A40T/E61D: nd (0 of 3 replicates).
H98F/R99H/P101H: 6.0 nM (3 of 3 replicates).
K24W/N35G/Q95E: 4.6 µM (2 of 3 replicates).
Q95T/R99W/S103F: 66 µM (2 of 3 replicates).
S28V/V29Q/N37M: 94 nM (3 of 3 replicates).
S33R/S38A/Q96L: 1.2 µM (3 of 3 replicates).
S28T/Q96G: 2.7 µM (2 of 3 replicates).
E32A/R60G/L100Y: 360 nM (1 of 3 replicates).
S28W/N35Y/K36S: 15 nM (3 of 3 replicates).
S25H/V39Q/S62G: 83 µM (1 of 3 replicates).
S38D/E61V/Q95F: 20 µM (2 of 3 replicates).
N37G/S58K: nd (0 of 3 replicates).
Q27M/E32N/A57K: 6.9 µM (1 of 3 replicates).
S38H/S58D/S103K: 11 µM (1 of 3 replicates).
A57Y/S58E/T59W: nd (0 of 3 replicates).
S26L/S38I/P101N: 1.0 µM (1 of 3 replicates).
R34L/N35V/S103A: 150 nM (3 of 3 replicates).
S33C/T59Q/Q95I: 3.3 µM (3 of 3 replicates).
L30Q/E61K/L100V: 48 nM (3 of 3 replicates).
S33Y/R34W/Q95A: 6.3 nM (3 of 3 replicates).
Y31I/S38V/S62H: 3.6 µM (1 of 3 replicates).
S26Q/T59D/Q95L: nd (0 of 3 replicates).
Y31L/R60E/L100S: nd (0 of 3 replicates).
Q27W/L30E/S38H: 4.4 nM (3 of 3 replicates).
S26Q/N35C/K36V: 87 nM (3 of 3 replicates).
S25R/S38G/L100E: 460 µM (2 of 3 replicates).

Continued, with the values leading:

nd (0 of 3 replicates): S38Y/R60N.
nd (0 of 3 replicates): R60Y/H98T.
280 nM (3 of 3 replicates): S26M/L30F/E61W.
600 nM (1 of 3 replicates): Q27Y/S28M/Y31W.
1.8 µM (3 of 3 replicates): K36I/S38K/S62P.
22 nM (3 of 3 replicates): R34E/K36S/E61D.
nd (0 of 3 replicates): Y31C/A40R/L100R.
700 nM (3 of 3 replicates): Q27N/Y31A/N35V.
nd (0 of 3 replicates): S25G/E32C/Y97R.
32 nM (3 of 3 replicates): Y31E/T59C/Q95R.
570 nM (1 of 3 replicates): S33A/H98I/S103N.
400 pM (3 of 3 replicates): S25Y/N37Q/W56G.
220 pM (3 of 3 replicates): S25Q/W56D.
11 µM (2 of 3 replicates): K24L/S26W/A57S.
2.3 nM (3 of 3 replicates): A40N/S58K/L102W.
nd (0 of 3 replicates): R34V/Y97F/L100Q.
nd (0 of 3 replicates): S28L/L100K.
nd (0 of 3 replicates): S33W/V39E/L102N.
18 nM (3 of 3 replicates): S62Q/Q96M/P101G.
2.8 nM (3 of 3 replicates): Y31D/S33N.
11 nM (3 of 3 replicates): W56S/Q95A/H98Q.
10 µM (3 of 3 replicates): K24W/E32M/S62T.
3.9 µM (2 of 3 replicates): K24P/Q96N.
nd (0 of 3 replicates): S26L/R34H/W56K.
220 nM (3 of 3 replicates): L30C/Y31K/R99W.
nd (0 of 3 replicates): S33M/A40R/R99P.

The first 7 entries again:

changes,Kd,replicates with signal
V29R/A40T/E61D,nd,0 of 3
H98F/R99H/P101H,6.0 nM,3 of 3
K24W/N35G/Q95E,4.6 µM,2 of 3
Q95T/R99W/S103F,66 µM,2 of 3
S28V/V29Q/N37M,94 nM,3 of 3
S33R/S38A/Q96L,1.2 µM,3 of 3
S28T/Q96G,2.7 µM,2 of 3